Test results reported in patent US10646585B2, “Hydrophilic linkers and ligand-drug conjugates thereof” (priority 2017, dated 2020).

How the values were obtained:
Assay type in all cases: cell-based, human
[1] = tested on: HL-60 cells; assay: In vitro cytotoxicity assay (MTT), HL-60; settings: HL-60, Her2−, 120 hours incubation
Protocol: (§1) The cell lines used in the cytotoxicity assays were HL-60, a human promyelocytic leukemia cell line; NCI-N87, a human gastric carcinoma cell line; BT-474, a human invasive ductal carcinoma cell line; and SKOV3, a human ovarian carcinoma cell line. For HL-60, NCI-N87, and BT-474 cells, the cells were grown in RPMI-1640 with 10% FBS. For SKOV3 cells, the cells were grown in McCoy's 5A Medium with 10% FBS. To run the assay, the cells (180 μl, 6000 cells) were added to each well in a 96-well plate and incubated at 37° C. with 5% CO2 for 24 hours. Next, the cells were treated with test compounds (20 μl) at various concentrations in appropriate cell culture medium (total volume, 0.2 mL). The control wells contain cells and the medium but lack the test compounds. The plates were incubated at 37° C. with 5% CO2 for 120 hours. MTT (5 mg/ml) was then added to the wells (20 μl) and the plates were incubated at 37° C. for 1.5 hr. The medium was carefully removed and DMSO (180 μl) was added afterward.
(§2) After it was shaken for 15 min, the absorbance was measured at 490 nm and 570 nm with a reference filter of 620 nm. The inhibition % was calculated according to the following equation: inhibition %=[1-(assay-blank)/(control-blank)]×100.

[2] = tested on: SKOV3 cells; assay: In vitro cytotoxicity assay (MTT), SKOV3; settings: SKOV3, Her2++, 120 hours incubation
Protocol: as §1, §2

[3] = tested on: NCI-N87 cells; assay: In vitro cytotoxicity assay (MTT), N87; settings: N87-3, Her2++, 120 hours incubation
Protocol: as §1, §2

[4] = tested on: BT-474 cells; assay: In vitro cytotoxicity assay (MTT), BT-474; settings: BT474, Her2++, 120 hours incubation
Protocol: as §1, §2

T-DM1
IC50 [1]: > 10000 nM | IC50 [2]: 0.2 nM | IC50 [3]: 0.89 nM | IC50 [4]: 0.78 nM
